Ab-14 light chain CDR variants: yeast mating affinities

All variants were tested on one target, the spike HR2 peptide PDVDLGDISGINAS (SARS-CoV-2).

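These sequences belong to a second round, designed from the earlier measurements on random variants of the parent. Their group label is 14L_En_HC (En: ensemble of fine-tuned language models; HC: hill climbing; a sequence that several methods proposed may carry one label only). Affinity was read by AlphaSeq, a pooled yeast mating assay with surface-displayed partners. Mating (16 h, 30 °C) was followed by selection of diploids and sequencing of their barcodes. The ratio of observed to expected reads was calibrated, replicate by replicate, on BCL2-family standards whose Kd was known from biolayer interferometry. Mating was done six times.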

Parent: Ab-14, a human scFv built as VH, three GGGGS repeats, VL. Only the CDRs of the light chain vary.
VH: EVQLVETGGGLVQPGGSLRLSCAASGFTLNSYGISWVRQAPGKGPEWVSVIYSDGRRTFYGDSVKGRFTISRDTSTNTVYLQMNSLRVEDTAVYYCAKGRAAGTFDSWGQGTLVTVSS
VL: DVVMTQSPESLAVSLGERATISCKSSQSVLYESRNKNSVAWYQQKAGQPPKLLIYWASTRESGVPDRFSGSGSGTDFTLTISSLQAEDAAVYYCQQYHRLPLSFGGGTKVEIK

Variants are written as CDR1, CDR2 and CDR3 of the light chain (limits as in the source). Parent: KSSQSVLYESRNKNSVA, WASTRES, QQYHRLPLS.
Values are log10 of the apparent Kd in nM; lower means stronger binding.
Averages over replicates are reported, and they cover detected replicates only.
Where no diploid with the target was found in that replicate, the entry reads "nd": below detection, most likely a poor binder, though not proof of it.
The parent sequence was in this pool as ten entries: three were never detected, three once, and four in most replicates, with averages from 0.34 to 2.37.

{"CDR-L1": "MFSSLMEYGQRYRNSVA", "CDR-L2": "QASVREN", "CDR-L3": "QQYHWLPLS", "log10 Kd (nM) by replicate": "1.56 1.97 1.14 2.03 1.33 1.92", "log10 Kd (nM), mean": "1.66", "control signals": "3/18 (2.43)"}
{"CDR-L1": "TIGQMFNGESRNRNSVA", "CDR-L2": "QAETRES", "CDR-L3": "QSYDRLPLS", "log10 Kd (nM) by replicate": "1.11 0.68 0.87 0.72 0.94 0.74", "log10 Kd (nM), mean": "0.84", "control signals": "2/18 (2.86)"}
{"CDR-L1": "KVSDSAQFLSRNRNSVA", "CDR-L2": "DNSTRGS", "CDR-L3": "QQYHRLPLS", "log10 Kd (nM) by replicate": "1.04 1.15 1.04 1.10 1.25 1.18", "log10 Kd (nM), mean": "1.13", "control signals": "4/18 (3.51)"}
{"CDR-L1": "KISQMYRYEQQNSSSIA", "CDR-L2": "EANTREK", "CDR-L3": "QSYHRLPLS", "log10 Kd (nM) by replicate": "nd 2.74 nd 0.80 nd 1.46", "log10 Kd (nM), mean": "1.67", "control signals": "0/18"}
{"CDR-L1": "ILSQSVLMGMHLKNSVA", "CDR-L2": "QASTRFN", "CDR-L3": "QQYHRLPLM", "log10 Kd (nM) by replicate": "nd 1.64 1.63 1.34 1.53 2.31", "log10 Kd (nM), mean": "1.69", "control signals": "0/18"}
{"CDR-L1": "MIAAGLRGVGRNKNSVA", "CDR-L2": "NAQTREE", "CDR-L3": "QHYHRLPLS", "log10 Kd (nM) by replicate": "0.85 0.95 0.79 0.96 0.70 0.96", "log10 Kd (nM), mean": "0.87", "control signals": "1/18 (2.67)"}
{"CDR-L1": "HLGDTVMQGSYYKNSVA", "CDR-L2": "QESTRAD", "CDR-L3": "QQYHRLPLS", "log10 Kd (nM) by replicate": "0.34 0.03 0.28 0.18 0.01 0.32", "log10 Kd (nM), mean": "0.19", "control signals": "1/18 (2.87)"}
{"CDR-L1": "HLSQSADLESVHKNSIA", "CDR-L2": "DLMTRES", "CDR-L3": "QQYHRLPLS", "log10 Kd (nM) by replicate": "0.06 0.11 0.06 -0.12 -0.06 0.09", "log10 Kd (nM), mean": "0.02", "control signals": "0/18"}
{"CDR-L1": "QLAESVHMESRNKNSVA", "CDR-L2": "DNSTRES", "CDR-L3": "QHYDRLPLS", "log10 Kd (nM) by replicate": "nd nd 2.53 2.01 2.82 1.90", "log10 Kd (nM), mean": "2.31", "control signals": "0/18"}
{"CDR-L1": "KISMSVTFESYNKNSVA", "CDR-L2": "ENSTRES", "CDR-L3": "QSYHRLPLS", "log10 Kd (nM) by replicate": "nd 1.93 nd 2.63 1.76 4.28", "log10 Kd (nM), mean": "2.65", "control signals": "2/18 (2.40)"}
{"CDR-L1": "KISQMSTIESIIHNSVA", "CDR-L2": "QTSTREK", "CDR-L3": "QQYDRLPLS", "log10 Kd (nM) by replicate": "0.39 0.82 0.74 0.56 0.65 0.58", "log10 Kd (nM), mean": "0.62", "control signals": "2/18 (2.82)"}
{"CDR-L1": "MISQSFLIGMKAKNSVA", "CDR-L2": "QTNTREH", "CDR-L3": "QQYDRLPLI", "log10 Kd (nM) by replicate": "0.56 0.59 0.38 0.36 0.50 0.44", "log10 Kd (nM), mean": "0.47", "control signals": "0/18"}
{"CDR-L1": "KLSATYRYESQNKNSIA", "CDR-L2": "EMTTRED", "CDR-L3": "QCYHRLPLS", "log10 Kd (nM) by replicate": "1.77 0.83 0.86 1.86 1.24 1.14", "log10 Kd (nM), mean": "1.28", "control signals": "0/18"}
{"CDR-L1": "TLGQVTMQLQRNKNSVA", "CDR-L2": "DASTSED", "CDR-L3": "QQYDRLPLS", "log10 Kd (nM) by replicate": "0.04 1.05 1.08 1.29 -0.06 0.39", "log10 Kd (nM), mean": "0.63", "control signals": "0/18"}
{"CDR-L1": "MISDTGIHDSRMQNSVA", "CDR-L2": "NNSTRES", "CDR-L3": "QQYHRLPLS", "log10 Kd (nM) by replicate": "1.99 1.46 1.58 1.75 1.26 1.50", "log10 Kd (nM), mean": "1.59", "control signals": "3/18 (3.05)"}
{"CDR-L1": "TLVQSVMGGSRTKNSVA", "CDR-L2": "NAETRYD", "CDR-L3": "QHYHRLPLS", "log10 Kd (nM) by replicate": "2.13 2.47 nd 2.89 1.69 2.10", "log10 Kd (nM), mean": "2.26", "control signals": "0/18"}
{"CDR-L1": "KLSQVTHSESRNKNSIA", "CDR-L2": "EMVTREY", "CDR-L3": "QQYDRLPLS", "log10 Kd (nM) by replicate": "0.80 1.31 0.91 0.81 0.84 0.58", "log10 Kd (nM), mean": "0.87", "control signals": "1/18 (2.18)"}
{"CDR-L1": "NVGQSMDGEQRNKNSVA", "CDR-L2": "HQSTRED", "CDR-L3": "QHYHRLPLS", "log10 Kd (nM) by replicate": "1.22 0.57 0.60 0.82 0.84 0.80", "log10 Kd (nM), mean": "0.81", "control signals": "0/18"}
{"CDR-L1": "MIAQGLRGVGRNKNSVA", "CDR-L2": "NAQTRES", "CDR-L3": "QHYHRLPLS", "log10 Kd (nM) by replicate": "1.97 3.14 nd nd nd 2.10", "log10 Kd (nM), mean": "2.41", "control signals": "1/18 (2.18)"}
{"CDR-L1": "MLLQSTMYGERQRNSVA", "CDR-L2": "HASTRED", "CDR-L3": "QQYHRLPLI", "log10 Kd (nM) by replicate": "nd nd 0.67 nd 0.85 1.41", "log10 Kd (nM), mean": "0.98", "control signals": "0/18"}
{"CDR-L1": "MISQLFMYGSRQYNSVA", "CDR-L2": "QASTRES", "CDR-L3": "QQYDRLPLI", "log10 Kd (nM) by replicate": "1.41 0.83 -0.05 -0.11 0.06 0.30", "log10 Kd (nM), mean": "0.41", "control signals": "0/18"}
{"CDR-L1": "HISQSVGMTSFNKNSVA", "CDR-L2": "ENNTRED", "CDR-L3": "QQYDRLPLS", "log10 Kd (nM) by replicate": "nd nd nd 2.75 3.08 nd", "log10 Kd (nM), mean": "2.91", "control signals": "0/18"}
{"CDR-L1": "KIGLVTNGISFAKNSVA", "CDR-L2": "EQSTREN", "CDR-L3": "QQYDRLPLS", "log10 Kd (nM) by replicate": "0.99 1.00 0.81 1.16 0.82 1.54", "log10 Kd (nM), mean": "1.05", "control signals": "2/18 (2.23)"}
{"CDR-L1": "TISTSALYESTNKNSVA", "CDR-L2": "ELSTRGQ", "CDR-L3": "QQYERLPLS", "log10 Kd (nM) by replicate": "0.43 0.55 0.75 0.35 0.26 0.43", "log10 Kd (nM), mean": "0.46", "control signals": "3/18 (3.31)"}

The first 2 entries again:

{"CDR-L1": "MFSSLMEYGQRYRNSVA", "CDR-L2": "QASVREN", "CDR-L3": "QQYHWLPLS", "log10 Kd (nM) by replicate": "1.56 1.97 1.14 2.03 1.33 1.92", "log10 Kd (nM), mean": "1.66", "control signals": "3/18 (2.43)"}
{"CDR-L1": "TIGQMFNGESRNRNSVA", "CDR-L2": "QAETRES", "CDR-L3": "QSYDRLPLS", "log10 Kd (nM) by replicate": "1.11 0.68 0.87 0.72 0.94 0.74", "log10 Kd (nM), mean": "0.84", "control signals": "2/18 (2.86)"}

The authors' rule: three or more of the six replicates give a measured affinity, fewer mean a poor binder.
Three control strains display no target. For all light chain designs, 4% of the pairings with them gave a signal, with a median of 2.64 and one signal in twenty below 1.59, so weak values seen in few replicates may be background. The control count says in how many pairings with the empty strains this scFv gave a signal, with their mean in brackets.
Values of this round are not directly comparable with the first-round values of the same sequences.

Data: MIT Lincoln Laboratory AlphaSeq set, Li et al. 2023, doi:10.1038/s41467-023-39022-2, as distributed in FLAb.